# Laboratory results reported in patent US20200138827A1, “SMALL MOLECULE MODULATORS OF HUMAN STING” (Curadev Pharma Limited, priority 2017, published 2020).
# Chains of the proteins cited; added tags and fusions are not shown.
# UniProt Q86WV6, whole entry R71H/G230A/H232R/R293Q: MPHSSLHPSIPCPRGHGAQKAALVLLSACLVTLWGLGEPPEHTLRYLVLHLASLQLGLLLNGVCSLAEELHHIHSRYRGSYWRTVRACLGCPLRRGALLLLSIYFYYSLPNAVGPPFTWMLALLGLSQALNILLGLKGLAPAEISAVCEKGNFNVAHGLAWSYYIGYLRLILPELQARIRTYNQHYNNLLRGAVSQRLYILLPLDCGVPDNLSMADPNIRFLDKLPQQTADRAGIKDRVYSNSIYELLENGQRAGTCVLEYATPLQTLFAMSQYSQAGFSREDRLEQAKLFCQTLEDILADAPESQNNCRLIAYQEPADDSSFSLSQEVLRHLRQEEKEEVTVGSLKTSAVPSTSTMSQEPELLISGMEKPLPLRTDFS
# UniProt Q86WV6, whole entry H232R: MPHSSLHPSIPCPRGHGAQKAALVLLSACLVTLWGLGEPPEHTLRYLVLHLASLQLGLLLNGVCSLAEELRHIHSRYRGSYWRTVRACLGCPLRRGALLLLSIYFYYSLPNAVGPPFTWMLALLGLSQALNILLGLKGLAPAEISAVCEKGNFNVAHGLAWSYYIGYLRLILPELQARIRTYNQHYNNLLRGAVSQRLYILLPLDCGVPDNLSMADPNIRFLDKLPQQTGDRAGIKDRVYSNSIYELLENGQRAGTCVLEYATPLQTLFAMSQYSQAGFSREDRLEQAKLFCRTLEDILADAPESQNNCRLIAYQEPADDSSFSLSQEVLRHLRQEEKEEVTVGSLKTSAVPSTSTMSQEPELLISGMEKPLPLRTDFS
# Legend:
# Format in all cases: cell-based
# hSTING(HAQ) = molecular target: T1, hSTING(HAQ) (Homo sapiens, UniProt Q86WV6, G230A/H232R/R293Q/R71H); assay: Luciferase reporter assay in HEK293T-hSTING-Luciferase cells, HAQ polymorph; conditions: 20 hr stimulation, read-out: HAQ activity (EC50 range)
# T1 construct: host or cells: HEK293T
# WT/R232 STING protein = molecular target: T2, WT/R232 STING protein (Homo sapiens, UniProt Q86WV6, H232R); assay: Luciferase reporter assay in HEK293T-hSTING-Luciferase cells, WT/R232; conditions: 20 hr stimulation, read-out: R232 Activity (EC50 range)
# T2 construct: host or cells: HEK293T
# hSTING(H232) = molecular target: T3, hSTING(H232) (Homo sapiens, UniProt Q86WV6); assay: Luciferase reporter assay in HEK293T-hSTING-Luciferase cells, H232 polymorph; conditions: 20 hr stimulation, read-out: H232 activity (EC50 range)
# T3 construct: host or cells: HEK293T
smiles,measurement,setting,value
"CC1(CCl)Sc2ccc(C(=O)NCc3ccc(F)cc3F)cc2N(Cc2c(F)cccc2Cl)C1=O (stereo not drawn) [Example 150, 4-(2-chloro-6-fluorobenzyl)-2-(chloromethyl)-N-(2,4-difluorobenzyl)-2-methyl-3-oxo-3,4-dihydro-2H-benzo[b][1,4] thiazine-6-carboxamide]",EC50,hSTING(HAQ),1000 to 10000 nM
same,EC50,WT/R232 STING protein,< 1000 nM
same,EC50,hSTING(H232),1000 to 10000 nM
